2 substances from patent US20070219159A1, “CYCLODEXTRIN COMPOSITIONS AND METHODS OF TREATING VIRAL INFECTIONS” (priority 2002, published 2007) can be followed below.

One data set deals with HSV-1. The settings on record: in general 1000-fold less drug than Examples 1-6 and 10.
In another data set the test system is HSV-2. The settings on record: in general 1000-fold less drug than Examples 1-6 and 10.

In the case of hydroxypropyl γ-cyclodextrin [HPGCD], the “SI = CC50/EC50” value was 0 with Rhino; 0 in the data set with Resp syncytial; 0 with PIV; 0 in the data set with HSV-1; above 625 with EBV; 0 with RSV. Further, the “SI = CC50/EC50” value with HSV-2, in the data set with Pichinde, in the data set on Ad, with HCMV, in the data set with MCMV and with MV was 0 throughout. Further, the “SI = CC50/EC50” value in the data set on Measles, in the data set with HHV-7, with HRV, in the data set on Punta Toro, in the data set on HHV-6 and in the data set with VZV was 0 each time.

With methyl-β-cyclodextrin [MBCD], the “SI = CC50/EC50” value with Rhino, in the data set with Resp syncytial, with PIV, in the data set on HSV-1, in the data set with EBV and with RSV was 0 throughout. In addition, the “SI = CC50/EC50” value with HSV-2, with Ad, in the data set with HCMV, with MCMV, with Measles and in the data set on HHV-7 was 0 throughout. Besides, the “SI = CC50/EC50” value in the data set with HRV, in the data set with HHV-6 and in the data set on VZV was 0 each time.
